Measured values: patent publication US8022035B2, “Y4 selective receptor agonists for therapeutic interventions” (7TM Pharma A/S, priority 2005, dated 2011)

Protein sequences, listed by entry. Tags and fused reporters are not part of them.
UniProt P49146, whole entry: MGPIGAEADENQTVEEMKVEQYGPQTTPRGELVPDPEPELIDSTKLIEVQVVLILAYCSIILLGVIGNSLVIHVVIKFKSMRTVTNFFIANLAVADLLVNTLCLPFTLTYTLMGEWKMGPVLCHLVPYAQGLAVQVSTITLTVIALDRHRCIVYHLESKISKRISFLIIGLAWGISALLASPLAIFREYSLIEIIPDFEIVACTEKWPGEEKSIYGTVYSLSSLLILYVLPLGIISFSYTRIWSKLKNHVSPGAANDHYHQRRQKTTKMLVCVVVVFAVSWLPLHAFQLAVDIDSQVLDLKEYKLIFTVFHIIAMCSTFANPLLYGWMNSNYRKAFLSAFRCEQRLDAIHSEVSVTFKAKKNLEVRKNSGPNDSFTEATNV

Target: T1, human Y2 receptor (Homo sapiens, UniProt P49146)
T1 construct: expressed in transfected cells; host or cells: COS-7 cells, transient transfection, co-transfected with Gqi5
Experiment: Human Y2 receptor potency assay (inositol phosphate turnover)
Type: cell-based
Protocol: Potency of the test compounds on the human Y2 receptor is determined by performing dose-response experiments in COS-7 cells transiently transfected with the human Y2 receptor as well as a promiscuous G protein, Gqi5 which ensures that the Y2 receptor couples through a Gq pathway leading to an increase in inositol phosphate turnover. […] After stimulation with various concentrations of peptide for 45 min at 37 C, cells are extracted with 10% ice-cold perchloric acid followed by incubation on ice for 30 min. […] Determinations are made in duplicates.

`CCCC[C@H](NC(=O)[C@H](CCC(N)=O)NC(=O)[C@H](CCC(=O)O)NC(=O)[C@@H]1CCCN1C(=O)[C@@H](NC(=O)[C@H](C)NC(=O)[C@H](CC(N)=O)NC(=O)[C@H](CCC(=O)O)NC(=O)CNC(=O)[C@@H]1CCCN1C(=O)[C@H](Cc1ccc(O)cc1)NC(=O)[C@@H](NC(=O)[C@@H]1CCCN1C(=O)[C@H](CCC(=O)O)NC(=O)[C@H](CC(C)C)NC(=O)[C@@H]1CCCN1)C(C)C)[C@@H](C)O)C(=O)N[C@@H](C)C(=O)N[C@@H](CCC(N)=O)C(=O)N[C@@H](Cc1ccc(O)cc1)C(=O)N[C@@H](C)C(=O)N[C@@H](C)C(=O)N[C@@H](CC(=O)O)C(=O)N[C@@H](CC(C)C)C(=O)N[C@@H](CCCNC(=N)N)C(=O)N[C@@H](CCCNC(=N)N)C(=O)N[C@@H](Cc1ccc(O)cc1)C(=O)N[C@H](C(=O)N[C@@H](CC(N)=O)C(=O)N[C@@H](CCCC)C(=O)N[C@@H](CC(C)C)C(=O)N[C@H](C(=O)N[C@@H](CCCNC(=N)N)C(=O)N1CCC[C@H]1C(=O)N[C@@H](CCCNC(=N)N)C(=O)N[C@@H](Cc1ccc(O)cc1)C(N)=O)[C@@H](C)O)[C@@H](C)CC` [[Glu10,Nle17,Nle30]-PP(2-36), [Glu10,Nle17,Nle30]PP2-36] was tested, and the EC50 was > 1 µM.
